Assay results from patent EP4847612A1, “ALDOHEXOSE-2-EPIMERASE OR MUTANT THEREOF AND USE THEREOF” (dated 2026).

What was measured:
[1] = tested on: Runella slithyformis aldohexose 2-epimerase RsAE (Runsl_4586), wild type, SEQ ID NO: 5; test: Enzyme kinetics of RsAE converting D-glucose to D-mannose (Lineweaver-Burk, HPLC); settings: 50 mM phosphate buffer (pH 7.8), 37°C, 60 min, glucose 10 g/L~100 g/L, 0.03 mg enzyme
Description: In a 1 mL reaction system (50 mM phosphate buffer (pH 7.8)), with a test substrate (as shown in Table 1) concentration of 10 g/L, 0.03 mg of RsAE obtained in Example 1 was added, and the reaction was carried out at 37°C for 60 min. After the reaction, the reaction was terminated in a boiling water bath for 10 min. The catalytic solution after termination of the reaction was centrifuged at 13000 rpm for 1 min, and the supernatant was taken to prepare HPLC test samples. High performance liquid chromatography was used to determine the amount of mannose produced in the reaction system, and the production status is shown in Table 1. The chromatographic conditions were as follows: using an Agilent 1260 high-performance liquid chromatograph, equipped with a Phenomenex MARS Mca 5u 300X 7.8 mm column, with a detector temperature of 35°C, column temperature of 80°C, and pure water as the mobile phase; the flow rate was 0.5 ml/min, and the injection volume was 10 µl.
In a 1 mL reaction system (50 mM phosphate buffer (pH 7.8)), with a substrate glucose concentration of 10 g/L~100 g/L, 0.03 mg of RsAE obtained in Example 1 was added respectively, and the reaction was carried out at 37°C for 60 min. After the reaction, the reaction was terminated in a boiling water bath for 10 min. HPLC test sample preparation and high performance liquid chromatography conditions were the same as in Example 2. […]

[2] = tested on: Runella slithyformis aldohexose 2-epimerase RsAE mutant (G354Q+T355E), SEQ ID NO: 8; test: Enzyme kinetics of RsAE mutant (G354Q+T355E) converting D-glucose to D-mannose (Lineweaver-Burk, HPLC); settings: 50 mM phosphate buffer (pH 7.8), 37°C, 60 min, glucose 10-100 g/L, 0.03 mg enzyme
Description: In a 1 mL reaction system (50 mM phosphate buffer (pH 7.8), with a substrate glucose concentration of 10 g/L, 0.15 mg of each of the enzymes prepared in Example 5 (RsAE wild type (WT), mutant (W198H), mutant (G354Q), and mutant (G354Q+T355E)) were added respectively, and the reaction was carried out at 37°C for 120 min. After the reaction, the reaction was terminated in a boiling water bath for 10 min. The catalytic solution after termination of the reaction was centrifuged at 13000 rpm for 1 min, and the supernatant was taken to prepare high performance liquid chromatography test samples, and the amount of mannose produced in the reaction system was measured. The chromatographic conditions of high performance liquid chromatography were as follows: using an Agilent 1260 high performance liquid chromatograph, equipped with a Phenomenex MARS Mca 5u 300X 7.8 mm chromatographic column, with a detector temperature 35°C, column temperature 80°C, and pure water the mobile phase; the flow rate was 0.5 mL/min, and the injection volume was 10 µL.
In a 1 mL reaction system (50 mM phosphate buffer (pH 7.8)), with substrate glucose concentrations of 10 g/L, 20 g/L, 40 g/L, 60 g/L, 80 g/L and 100 g/L, respectively, 0.03 mg of the RsAE mutant (G354Q+T355E) prepared in Example 5 was added respectively, and the reaction was carried out at 37°C for 60 min. […]

D-glucose was tested, and the Kcat [1] was “about 5 s^-1” and the Kcat [2] was “about 10 s^-1”.
